# Assay results reported in US3991199A, “Pyridoindoles” (Endo Laboratories, Inc., priority 1974, dated 1976).
# Assays:
# locomotor activity = assay: Decreased Locomotor Activity (LMA), sedative; format: in vivo; details: po
# [1] = tested on: conditioned avoidance response; assay: Rat Conditioned Avoidance Response (CAR), major tranquilizer; format: in vivo; details: for major tranquilizing (antipsychotic) activity: in words; for CAR rat ED50: po
# [2] = tested on: pressor response to epinephrine and/or nor-epinephrine; assay: Adrenergic Blockage (AB); format: in vivo; details: intravenous
# blood pressure = assay: Hypotensive (Hypo): blood pressure in conscious rats; format: in vivo, rat; details: oral dose
# [3] = tested on: conflict (approach-avoidance); assay: Rat Conflict (Approach-Avoidance) Test (Conf), minor tranquilizer; format: in vivo; details: po
compound,measurement,setting,value
CCN1CC[C@@H]2[C@@H](C1)c1ccccc1N2c1ccccc1.Cl (racemic),LMA mouse MED,locomotor activity,1 mg/kg
same,major tranquilizing (antipsychotic) activity,[1],major tranquilizer (antipsychotic) activity
same,CAR rat ED50,[1],6 mg/kg
CC(C)N1CC[C@@H]2[C@@H](C1)c1ccccc1N2c1ccccc1.Cl (racemic),LMA mouse MED,locomotor activity,14 mg/kg
"c1ccc(N2c3ccccc3[C@@H]3CN(CC4CCC4)CC[C@H]32)cc1 [compound of Example 2, (+)-trans-2-(cyclobutylmethyl)-2,3,4,4a,5,9b-hexahydro-5-phenyl-1H-pyrido[4,3-b]indole]",AB dog MED,[2],0.10
c1ccc(N2c3ccccc3[C@@H]3CN(C4CC4)CC[C@H]32)cc1 (relative stereo),LMA mouse MED,locomotor activity,10 mg/kg
Brc1ccc(N2c3ccc(Br)cc3[C@@H]3CNCC[C@H]32)cc1.Cl (racemic),LMA mouse MED,locomotor activity,10 mg/kg
"c1ccc(N2c3ccccc3[C@@H]3CNCC[C@H]32)cc1 (single isomer, unassigned)",LMA mouse MED,locomotor activity,30 mg/kg
same,CAR rat ED50,[1],> 100 mg/kg
CC(C)(C)CN1CC[C@@H]2[C@@H](C1)c1ccccc1N2c1ccccc1.Cl (racemic),LMA mouse MED,locomotor activity,30 mg/kg
C#CCN1CC[C@@H]2[C@@H](C1)c1ccccc1N2c1ccccc1 (relative stereo),LMA mouse MED,locomotor activity,30 mg/kg
c1ccc(N2c3ccccc3[C@@H]3CN(CC4CC4)CC[C@H]32)cc1 (relative stereo),LMA mouse MED,locomotor activity,3 mg/kg
C=CCN1CC[C@@H]2[C@@H](C1)c1ccccc1N2c1ccccc1 (racemic),LMA mouse MED,locomotor activity,10 mg/kg
CN1CC[C@@H]2[C@@H](C1)c1ccccc1N2c1cccc(C(F)(F)F)c1 (relative stereo),LMA mouse MED,locomotor activity,100 mg/kg
c1ccc(N2c3ccccc3[C@@H]3CN(C4CCCC4)CC[C@H]32)cc1 (relative stereo),LMA mouse MED,locomotor activity,10 mg/kg
CN1CC[C@@H]2[C@@H](C1)c1ccccc1N2c1ccccc1.Cl,Hypo rat MED,blood pressure,30
same,Conf rat MED,[3],I
same,AB dog MED,[2],0.01
same,LMA mouse MED,locomotor activity,10 mg/kg
same,CAR rat ED50,[1],5 mg/kg
CC(C)CN1CC[C@@H]2[C@@H](C1)c1ccccc1N2c1ccccc1 (racemic),LMA mouse MED,locomotor activity,10 mg/kg
CN1CC[C@@H]2[C@@H](C1)c1cc(Br)ccc1N2c1ccc(Br)cc1.Cl (racemic),AB dog MED,[2],0.1
same,LMA mouse MED,locomotor activity,3 mg/kg
same,major tranquilizing (antipsychotic) activity,[1],major tranquilizer (antipsychotic) activity
same,CAR rat ED50,[1],4 mg/kg
